Measurements from patent US20070105789A1, “Combinatorial chemotherapy treatment using Na+/K+ ATPase inhibitors” (priority 2004, published 2007).

Legend:
HIF-1α = HIF-1α Western blot in Hep3B cells; type: cell-based, human
[1] = Melville KI et al. 1966; cited from earlier work
[2] = single oral dose of 3.5 mg; cited from earlier work
Na+/K+-ATPase = molecular target: T1, Na+/K+-ATPase (Canis lupus familiaris, UniProt P50997); assay: Na+/K+-ATPase inhibition; type: biochemical, dog
T1 construct: enzyme preparation from dog kidney (Sigma); purchased Sigma; host or cells: dog kidney tissue
Method: Anti-prolerafitive IC50 values were determined by MTS assay using an A549 cell line. Na^+/K^+-ATPase inhibition IC50 values were obtained using enzyme preparation from dog kidney (Sigma).

For C[C@@H]1OC(OC2C=C3CCC4C(CC[C@]5(C)[C@@H](c6ccc(=O)oc6)CC[C@]45O)[C@@]3(C)CC2)[C@H](O)[C@H](O)[C@H]1O (stereo partly shown) [BNC-4, proscillaridin], the “potency relative to BNC-1 in inhibiting HIF-1α expression” value (HIF-1α) is listed as “about 10 times”, the “toxicity relative to Ouabain” value [1] is listed as “about half” and the “time to optimal therapeutic plasma levels” value [2] is listed as 30 min. The “potency relative to BNC-151 in Na+/K+-ATPase inhibition” value (Na+/K+-ATPase) was “about 10 times”.
